Literature values in US12100485B2, “Machine learning and molecular simulation based methods for enhancing binding and activity prediction” (The Board of Trustees of the Leland Stanford Junior …, priority 2018, dated 2024).

Test system: μOR

CN1CC[C@]23c4c5ccc(O)c4O[C@H]2C(=O)CC[C@H]3[C@H]1C5 [hydromorphone]
Action: agonist
